Data as given in ChEMBL document CHEMBL1142182, “Novel Ambler class A beta-lactamase LAP-1 and its association with the plasmid-mediated quinolone resistance determinant QnrS1” (Antimicrob Agents Chemother, 2007).

What was measured:
Enterobacter cloacae [1] = tested on: Enterobacter cloacae
Enterobacter cloacae [2] = tested on: Enterobacter cloacae; remark: listed apart in the source

`CC1(C)S[C@@H]2[C@H](NC(=O)[C@H](C(=O)O)c3ccsc3)C(=O)N2[C@H]1C(=O)O` [TICARCILLIN] was tested, and the kcat/Km (Enterobacter cloacae [1]) was 750000 M⁻¹ s⁻¹ and the Km (Enterobacter cloacae [2]) was 40 µM.
